Reference: patent US7005449B2, “Tolterodine salts” (Pharmacia & Upjohn Company, priority 2002, dated 2006)

Assay: Equilibrium solubility of tolterodine salts (shaking excess salt 24 hours, RP-HPLC)
Details: for Equilibrium solubility in buffer: 0.1 M phosphate buffer pH 7.4, 24 hours; for Equilibrium solubility in buffer / Equilibrium solubility in water: room temperature; for final pH in buffer: final pH of the buffer solubility sample; for final pH in water: final pH of the water solubility sample; for Equilibrium solubility in water: 24 hours

SMILES	Equilibrium solubility in buffer [µg/mL]	final pH in buffer	final pH in water	Equilibrium solubility in water [µg/mL]
Cc1ccc(O)c([C@H](CCN(C(C)C)C(C)C)c2ccccc2)c1.Cl [HCl, reference compound]	7500	7.3	7.0	8700
Cc1ccc(O)c([C@H](CCN(C(C)C)C(C)C)c2ccccc2)c1.O=C(O)C(O)C(O)C(=O)O [tartrate, tolterodine tartrate, reference compound]	9800	4.4	3.6	11400
Cc1ccc(O)c([C@H](CCN(C(C)C)C(C)C)c2ccccc2)c1.O=S(=O)(O)CCS(=O)(=O)O [Edisylate, tolterodine edisylate]	8400	7.3	3.7	7100
